Assays:
ORL 1-receptor = ORL 1-receptor (Homo sapiens, UniProt P41146); experiment: ORL 1 receptor binding assay with 3H-nociceptine/orphanin FQ (WGA-SPA beads); conditions: membranes of recombinant CHO-ORL 1 cells, 0.5 nM 3H-nociceptine/orphanin FQ; for Ki: read-out: Ki (ORL1) Mean, mean; for % Inhibition (ORL1) [1 μM]: test concentration 1 μM
human μ-opiate receptor = human μ-opiate receptor (Homo sapiens, UniProt P35372); experiment: μ-opiate receptor binding assay with [3H]-naloxone (WGA-SPA beads); conditions: test concentration 1 μM; CHO-K1 membrane preparation; 1 nmol/l [3H]-naloxone

Amino acid sequences for entries named in this document (tags omitted). A change or cut given only in a name is not applied to a line headed by its entry.
UniProt P41146: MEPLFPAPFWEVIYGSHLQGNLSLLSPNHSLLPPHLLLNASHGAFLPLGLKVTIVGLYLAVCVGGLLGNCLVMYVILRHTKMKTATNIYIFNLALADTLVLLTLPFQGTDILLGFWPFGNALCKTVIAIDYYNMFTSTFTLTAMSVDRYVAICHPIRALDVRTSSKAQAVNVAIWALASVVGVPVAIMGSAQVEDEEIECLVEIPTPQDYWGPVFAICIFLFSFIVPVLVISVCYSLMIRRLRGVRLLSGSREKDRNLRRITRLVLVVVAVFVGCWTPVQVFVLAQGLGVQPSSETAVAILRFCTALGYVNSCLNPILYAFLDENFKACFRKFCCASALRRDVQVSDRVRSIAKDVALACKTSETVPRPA
UniProt P35372, whole entry, looked up: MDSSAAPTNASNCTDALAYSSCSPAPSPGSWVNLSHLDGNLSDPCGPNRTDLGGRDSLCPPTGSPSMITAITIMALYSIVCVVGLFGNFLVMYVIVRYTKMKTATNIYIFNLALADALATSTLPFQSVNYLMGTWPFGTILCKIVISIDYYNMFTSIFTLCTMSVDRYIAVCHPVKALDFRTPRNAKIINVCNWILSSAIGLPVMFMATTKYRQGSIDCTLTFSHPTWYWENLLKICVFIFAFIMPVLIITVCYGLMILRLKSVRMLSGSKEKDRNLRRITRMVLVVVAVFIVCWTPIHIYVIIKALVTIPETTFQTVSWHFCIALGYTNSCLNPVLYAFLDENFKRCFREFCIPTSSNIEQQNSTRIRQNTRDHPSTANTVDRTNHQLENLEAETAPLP

| Compound | Ki (ORL 1-receptor) [nM] | % Inhibition (μ) [1 μM] (human μ-opiate receptor) [%] | % Inhibition (ORL1) [1 μM] (ORL 1-receptor) [%] |
| --- | --- | --- | --- |
| CC1CC(c2ccccc2)(N(C)C)CCC12OCCc1c2[nH]c2ccccc12 (stereo not drawn) | 1 | – | – |
| CN(C)C1(c2ccccc2)CCC2(NCCc3c2[nH]c2ccccc32)C(Cc2cccc(F)c2)C1 (stereo not drawn) | 107 | 103 | 97 |
| N-((4-(dimethylamino)-4-(3-fluorophenyl)-4′,9′-dihydro-3′H-spiro[cyclohexane-1,1′-pyrano[3,4-b]indole]-2-yl)methyl)-3-phenylcinnamic acid amide | 70 | 97 | 83 |
| CC1CC(c2ccccc2)(N(C)C)CCC12OCCc1c2[nH]c2ccccc12 (racemic) | 6 | – | – |
| CN(C)C1(c2ccccc2)CCC2(OCCc3c2[nH]c2ccc(F)cc32)C(F)C1 (single isomer, unassigned) | 2810 | – | 29 |
| CN(C)C1(c2ccccc2)CCC2(NCCc3c2[nH]c2ccccc32)C(F)C1 (single isomer, unassigned) | 27 | – | 87 |
| CC(=O)OCC1CC(c2ccccc2)(N(C)C)CCC12OCCc1c2[nH]c2ccccc12 (stereo not drawn) | 340 | 75 | 50 |
| CC1CC(c2ccccc2)(N(C)C)CCC12OCCc1c2[nH]c2ncccc12 (stereo not drawn) | 230 | 84 | 50 |
| CN(C)C1(c2ccccc2)CCC2(NCCc3c2[nH]c2ccccc32)C(Sc2ccccc2)C1 (stereo not drawn) | 2050 | 88 | 73 |
| CC1CC(c2ccccc2)(N(C)C)CCC12OCCc1c2[nH]c2ccccc12.O=C(O)CC(O)(CC(=O)O)C(=O)O (racemic) | – | 106 | 97 |
| CN(C)C1(c2ccccc2)CCC2(NCCc3c2[nH]c2ccccc32)C(Cc2ccccc2)C1.O=C(O)CC(O)(CC(=O)O)C(=O)O (stereo not drawn) | – | 96 | 93 |
| 2-(4-(Dimethylamino)-4-phenyl-4′,9′-dihydro-3′H-spiro[cyclohexane-1,1′-pyrano[3,4-b]indole]-2-yl)methyl)isoindoline-1,3-dione | – | – | 83 |
| CN(C)C1(c2ccccc2)CCC2(OCCc3c2[nH]c2ccccc32)C(Sc2ccccc2)C1 (racemic) | – | 90 | 53 |
| CN(C)C1(c2ccccc2)CCC2(OCCc3c2[nH]c2ccccc32)C(CO)C1 (stereo not drawn) | 63 | 99 | 80 |
| CC1CC(c2ccccc2)(N(C)C)CCC12OCCc1c2[nH]c2ccccc12.O=C(O)CC(O)(CC(=O)O)C(=O)O (stereo not drawn) | – | 77 | 99 |

Source: patent publication US8293758B2, “Substituted spirocyclic cyclohexane derivatives” (dated 2012)
